Chains of the proteins cited; added tags and fusions are not shown. Residues count along the entry.
UniProt P61018, 3-174: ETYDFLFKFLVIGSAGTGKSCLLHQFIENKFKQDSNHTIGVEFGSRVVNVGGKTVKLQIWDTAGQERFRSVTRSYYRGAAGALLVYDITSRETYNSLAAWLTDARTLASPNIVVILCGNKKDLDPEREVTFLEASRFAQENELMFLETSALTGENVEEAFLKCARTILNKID
UniProt P61019, 1-172: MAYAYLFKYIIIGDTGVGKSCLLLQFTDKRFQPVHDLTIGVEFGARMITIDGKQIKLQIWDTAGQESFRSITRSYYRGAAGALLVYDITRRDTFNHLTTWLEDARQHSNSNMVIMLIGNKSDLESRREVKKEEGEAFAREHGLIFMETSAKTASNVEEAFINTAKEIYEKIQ

In paper PMC9808001 (2022):

Assays:
Assay in all cases: BLI
RAB25 = target: T1, RAB25 (Homo sapiens (Human), UniProt P57735)
T1 chain: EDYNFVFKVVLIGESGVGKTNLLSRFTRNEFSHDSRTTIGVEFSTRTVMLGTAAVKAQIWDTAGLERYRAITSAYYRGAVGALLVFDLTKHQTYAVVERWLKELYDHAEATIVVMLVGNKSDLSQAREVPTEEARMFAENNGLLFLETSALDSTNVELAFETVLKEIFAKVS

RAB11A = target: T2, RAB11A (Homo sapiens (Human), UniProt P62491)
T2 chain: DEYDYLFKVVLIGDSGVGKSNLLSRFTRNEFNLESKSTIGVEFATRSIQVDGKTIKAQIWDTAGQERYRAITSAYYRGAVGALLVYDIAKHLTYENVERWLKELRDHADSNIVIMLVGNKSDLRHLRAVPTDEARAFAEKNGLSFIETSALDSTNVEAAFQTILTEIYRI

RAB8A = target: T3, RAB8A (Homo sapiens (Human), UniProt P61006)
T3 chain: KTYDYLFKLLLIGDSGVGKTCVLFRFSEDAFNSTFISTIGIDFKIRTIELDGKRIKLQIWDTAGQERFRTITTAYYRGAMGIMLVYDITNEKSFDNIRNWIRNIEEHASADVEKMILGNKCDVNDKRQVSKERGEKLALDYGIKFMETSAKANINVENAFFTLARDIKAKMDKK

RAB4B = RAB4B (Homo sapiens (Human), UniProt P61018)
RAB2A = RAB2A (Homo sapiens (Human), UniProt P61019)

- Kd (RAB25): > 500 nM
- Kd (RAB11A): 75 nM
- Kd (RAB8A): > 500 nM
- Kd (RAB4B): > 500 nM
- Kd (RAB2A): > 500 nM
B1: WDR44 (protein)
chain: VMGPQRPRSNSGRELTDEEILASVMIKNLDTGEEIPLSLAEEKLPTGINPLTLHIM
